This is an account of results in patent US9540384B2, “Pyrrolidino heterocycles” (Hoffmann-La Roche Inc., priority 2012, dated 2017).

Chains of the proteins cited; added tags and fusions are not shown. A line that says so, or that is headed by a name, gives the form on record, which may keep a tag or linker. Residues count along the entry.
UniProt Q9Y233, 290-1055 with tags or gaps limits assumed: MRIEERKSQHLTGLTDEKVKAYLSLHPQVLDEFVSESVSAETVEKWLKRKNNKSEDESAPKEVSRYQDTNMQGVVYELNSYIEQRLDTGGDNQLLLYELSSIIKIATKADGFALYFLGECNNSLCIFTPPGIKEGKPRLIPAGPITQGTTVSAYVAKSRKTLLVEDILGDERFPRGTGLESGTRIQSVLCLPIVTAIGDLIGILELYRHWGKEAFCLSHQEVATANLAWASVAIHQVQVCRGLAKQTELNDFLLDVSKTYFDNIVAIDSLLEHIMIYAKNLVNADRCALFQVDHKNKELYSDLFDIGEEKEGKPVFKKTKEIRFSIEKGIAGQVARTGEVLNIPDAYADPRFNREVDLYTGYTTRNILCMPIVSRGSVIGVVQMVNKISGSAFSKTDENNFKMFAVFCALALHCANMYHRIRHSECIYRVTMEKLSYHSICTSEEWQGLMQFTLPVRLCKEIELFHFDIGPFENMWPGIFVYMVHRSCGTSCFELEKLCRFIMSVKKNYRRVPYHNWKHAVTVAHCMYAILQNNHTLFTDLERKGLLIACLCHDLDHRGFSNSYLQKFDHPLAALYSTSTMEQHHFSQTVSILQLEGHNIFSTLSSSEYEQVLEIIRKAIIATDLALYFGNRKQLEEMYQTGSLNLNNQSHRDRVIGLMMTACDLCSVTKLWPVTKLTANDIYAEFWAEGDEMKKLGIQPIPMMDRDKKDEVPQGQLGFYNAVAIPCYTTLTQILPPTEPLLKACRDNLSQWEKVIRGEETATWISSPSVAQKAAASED

For this assay, the target named is human PDE10A full length (Homo sapiens (Human), UniProt Q9Y233). Briefly: human PDE10A full length Scintillation Proximity Assay (SPA). The conditions noted are these: PDE10A enzyme, 50 nM cGMP + 50 nM [3H]-cGMP, 20 minutes at room temperature. Here is the method: The following test was carried out in order to determine the activity of the compounds of the present invention. PDE10 activity of the compounds of the present invention was determined using a Scintillation Proximity Assay (SPA)-based method similar to the one previously described (Fawcett, L. et al., Proc Natl Acad Sci USA (2000) 97(7):3702-3707).
The human PDE10A full length assay was performed in 96-well micro titer plates. The reaction mixture of 50 μl contained 20 mM HEPES pH=7.5/10 mM MgCl2/0.05 mg/ml BSA (Sigma cat. #A-7906), 50 nM cGMP (Sigma, cat. #G6129) and 50 nM [3H]-cGMP (GE Healthcare, cat. #TRK392 S.A. 13.2 Ci/mmol), 3.75 ng/well PDE10A enzyme (Enzo Life Science, Lausen, Switzerland cat #SE-534) with or without a specific test compound. A range of concentrations of the potential inhibitor was used to generate data for calculating the concentration of inhibitor resulting in 50% of the effect (e.g. IC50, the concentration of the competitor inhibiting PDE10A activity by 50%). Non-specific activity was tested without the enzyme. The reaction was initiated by the addition of the substrate solution (cGMP and [3H]-cGMP) and allowed to progress for 20 minutes at room temperature. […] Afterwards, radioactive counts were measured on a Perkin Elmer TopCount Scintillation plate reader.
A general note: Scintillation proximity formats need no separation of bound from free tracer.

`Clc1ccc2nc(OCc3cccc(N4CCCC4)n3)nc(OC3CCOCC3)c2c1`: the half-inhibitory concentration (IC50) (usually the concentration that inhibits the measured activity by half) came to 94 nM.
